This series is described as follows: total protein half-life in vivo (active degradation + dilution); higher = more stable protein.
Where [1] appears, read: E. coli NCM3722 delta-clpP delta-lon delta-hslV, growth: N-lim chemostat, doubling time 6 h.
Setting [2] is: E. coli NCM3722 delta-clpP, growth: N-lim chemostat, doubling time 6 h.
The mark [3] stands for this setting: E. coli NCM3722 delta-hslV, growth: N-lim chemostat, doubling time 6 h.
[4] abbreviates: E. coli NCM3722 delta-lon, growth: N-lim chemostat, doubling time 6 h.
The mark [5] stands for this setting: E. coli NCM3722 delta-smpB, growth: N-lim chemostat, doubling time 6 h.
The mark [6] stands for this setting: wild type E. coli NCM3722, growth: C-lim chemostat, doubling time 3 h.
Setting [7] is: wild type E. coli NCM3722, growth: C-lim chemostat, doubling time 6 h.
Setting [8] is: wild type E. coli NCM3722, growth: C-lim chemostat, doubling time 12 h.
Where [9] appears, read: wild type E. coli NCM3722, growth: N-lim chemostat, doubling time 6 h.
[10] abbreviates: wild type E. coli NCM3722, growth: N-lim chemostat, doubling time 12 h.
[11] abbreviates: wild type E. coli NCM3722, growth: P-lim chemostat, doubling time 6 h.
[12] abbreviates: wild type E. coli NCM3722, growth: P-lim chemostat, doubling time 12 h.

± gives the standard deviation of the averaged measurements.

With “MAEITASLVKELRERTGAGMMDCKKALTEANGDIELAIENMRKSGAIKAAKKAGNVAADGVIKTKIDGNYGIILEVNCQTDFVAKDAGFQAFADKVLDAAVAGKITDVEVLKAQFEEERVALVAKIGENINIRRVAALEGDVLGSYQHGARIGVLVAAKGADEELVKHIAMHVAASKPEFIKPEDVSAEVVEKEYQVQLDIAMQSGKPKEIAEKMVEGRMKKFTGEVSLTGQPFVMEPSKTVGQLLKEHNAEVTGFIRFEVGEGIEKVETDFAAEVAAMSKQS [P0A6P1]”, the “total protein half-life in vivo” value was 5.89 ± 0.95 h under setting [1]; 5.2 ± 0.35 h under setting [2]; 4.6 ± 0.21 h under setting [3]; 4.91 ± 0.42 h under setting [4]; 4.328 ± 0.029 h under setting [5]; 3.06 ± 0.14 h under setting [6]. The “total protein half-life in vivo” value under setting [7] stood at 5.84 ± 0.24 h; the “total protein half-life in vivo” value under setting [8] came to 10.9 ± 1.2 h; the “total protein half-life in vivo” value under setting [9] is 4.62 ± 0.2 h; the “total protein half-life in vivo” value under setting [10] turned out to be 7.22 ± 0.41 h; the “total protein half-life in vivo” value under setting [11] was 5.66 ± 0.061 h; the “total protein half-life in vivo” value under setting [12] was 12.21 ± 0.018 h.
Regarding “MKFTVEREHLLKPLQQVSGPLGGRPTLPILGNLLLQVADGTLSLTGTDLEMEMVARVALVQPHEPGATTVPARKFFDICRGLPEGAEIAVQLEGERMLVRSGRSRFSLSTLPAADFPNLDDWQSEVEFTLPQATMKRLIEATQFSMAHQDVRYYLNGMLFETEGEELRTVATDGHRLAVCSMPIGQSLPSHSVIVPRKGVIELMRMLDGGDNPLRVQIGSNNIRAHVGDFIFTSKLVDGRFPDYRRVLPKNPDKHLEAGCDLLKQAFARAAILSNEKFRGVRLYVSENQLKITANNPEQEEAEEILDVTYSGAEMEIGFNVSYVLDVLNALKCENVRMMLTDSVSSVQIEDAASQSAAYVVMPMRL [P0A988]”, the “total protein half-life in vivo” value under setting [1] turned out to be 5.92 ± 0.28 h; the “total protein half-life in vivo” value under setting [2] came out at 5.79 ± 1.1 h; the “total protein half-life in vivo” value under setting [3] is 5.35 ± 0.51 h; the “total protein half-life in vivo” value under setting [4] turned out to be 5.42 ± 0.064 h; the “total protein half-life in vivo” value under setting [5] was found to be 4.45 ± 0.074 h; the “total protein half-life in vivo” value under setting [6] stood at 3.11 ± 0.14 h. Also, the “total protein half-life in vivo” value came to 5.98 ± 0.39 h under setting [7]; 11.3 ± 0.35 h under setting [8]; 4.84 ± 0.25 h under setting [9]; 7.77 ± 0.12 h under setting [10]; 5.93 ± 0.3 h under setting [11]; 11.8 ± 0.36 h under setting [12].
For “MKNATFYLLDNDTTVDGLSAVEQLVCEIAAERWRSGKRVLIACEDEKQAYRLDEALWARPAESFVPHNLAGEGPRGGAPVEIAWPQKRSSSRRDILISLRTSFADFATAFTEVVDFVPYEDSLKQLARERYKAYRVAGFNLNTATWK”, the “total protein half-life in vivo” value was determined as 4.98 ± 0.28 h under setting [1]; 4.74 ± 0.71 h under setting [2]; 5.3 h under setting [3]; 6.04 ± 0.24 h under setting [4]; 4.46 ± 0.2 h under setting [5]; 10.8 ± 2.7 h under setting [8]. Also, the “total protein half-life in vivo” value by setting is: under setting [9], 4.77 ± 1.3 h; under setting [10], 8.61 ± 0.77 h; under setting [11], 5.13 ± 0.14 h; under setting [12], 13.8 ± 3 h.
Consider “MLKNLAKLDQTEMDKVNVDLAAAGVAFKERYNMPVIAEAVEREQPEHLRSWFRERLIAHRLASVNLSRLPYEPKLK [P0ABS8]”, for which the “total protein half-life in vivo” value under setting [1] is 4.2 h.
Regarding “MRWYPWLRPDFEKLVASYQAGRGHHALLIQALPGMGDDALIYALSRYLLCQQPQGHKSCGHCRGCQLMQAGTHPDYYTLAPEKGKNTLGVDAVREVTEKLNEHARLGGAKVVWVTDAALLTDAAANALLKTLEEPPAETWFFLATREPERLLATLRSRCRLHYLAPPPEQYAVTWLSREVTMSQDALLAALRLSAGSPGAALALFQGDNWQARETLCQALAYSVPSGDWYSLLAALNHEQAPARLHWLATLLMDALKRHHGAAQVTNVDVPGLVAELANHLSPSRLQAILGDVCHIREQLMSVTGINRELLITDLLLRIEHYLQPGVVLPVPHL”, the “total protein half-life in vivo” value under setting [1] was determined as 5.96 ± 1 h; the “total protein half-life in vivo” value under setting [2] was determined as 5.67 ± 0.35 h; the “total protein half-life in vivo” value under setting [4] worked out at 5.56 h; the “total protein half-life in vivo” value under setting [6] turned out to be 3.14 ± 0.54 h; the “total protein half-life in vivo” value under setting [7] amounted to 5.66 ± 0.25 h; the “total protein half-life in vivo” value under setting [8] is 11.3 h. Also, the “total protein half-life in vivo” value under setting [9] is 6.28 h, the “total protein half-life in vivo” value under setting [10] turned out to be 8.28 ± 0.98 h, the “total protein half-life in vivo” value under setting [11] was 4.99 ± 0.62 h and the “total protein half-life in vivo” value under setting [12] came to 10.245 ± 0.0054 h.
In the case of “MSEPRFVHLRVHSDYSMIDGLAKTAPLVKKAAALGMPALAITDFTNLCGLVKFYGAGHGAGIKPIVGADFNVQCDLLGDELTHLTVLAANNTGYQNLTLLISKAYQRGYGAAGPIIDRDWLIELNEGLILLSGGRMGDVGRSLLRGNSALVDECVAFYEEHFPDRYFLELIRTGRPDEESYLHAAVELAEARGLPVVATNDVRFIDSSDFDAHEIRVAIHDGFTLDDPKRPRNYSPQQYMRSEEEMCELFADIPEALANTVEIAKRCNVTVRLGEYFLPQFPTGDMSTEDYLVKRAKEGLEERLAFLFPDEEERLKRRPEYDERLETELQVINQMGFPGYFLIVMEFIQWSKDNGVPVGPGRGSGAGSLVAYALKITDLDPLEFDLLFERFLNPERVSMPDFDVDFCMEKRDQVIEHVADMYGRDAVSQIITFGTMAAKAVIRDVGRVLGHPYGFVDRISKLIPPDPGMTLAKAFEAEPQLPEIYEADEEVKALIDMARKLEGVTRNAGKHAGGVVIAPTKITDFAPLYCDEEGKHPVTQFDKSDVEYAGLVKFDFLGLRTLTIINWALEMINKRRAKNGEPPLDIAAIPLDDKKSFDMLQRSETTAVFQLESRGMKDLIKRLQPDCFEDMIALVALFRPGPLQSGMVDNFIDRKHGREEISYPDVQWQHESLKPVLEPTYGIILYQEQVMQIAQVLSGYTLGGADMLRRAMGKKKPEEMAKQRSVFAEGAEKNGINAELAMKIFDLVEKFAGYGFNKSHSAAYALVSYQTLWLKAHYPAEFMAAVMTADMDNTEKVVGLVDECWRMGLKILPPDINSGLYHFHVNDDGEIVYGIGAIKGVGEGPIEAIIEARNKGGYFRELFDLCARTDTKKLNRRVLEKLIMSGAFDRLGPHRAALMNSLGDALKAADQHAKAEAIGQADMFGVLAEEPEQIEQSYASCQPWPEQVVLDGERETLGLYLTGHPINQYLKEIERYVGGVRLKDMHPTERGKVITAAGLVVAARVMVTKRGNRIGICTLDDRSGRLEVMLFTDALDKYQQLLEKDRILIVSGQVSFDDFSGGLKMTAREVMDIDEAREKYARGLAISLTDRQIDDQLLNRLRQSLEPHRSGTIPVHLYYQRADARARLRFGATWRVSPSDRLLNDLRGLIGSEQVELEFD”, the “total protein half-life in vivo” value under setting [1] was 5.61 ± 0.071 h; the “total protein half-life in vivo” value under setting [2] was 6.7 ± 1 h; the “total protein half-life in vivo” value under setting [3] was 3.27 ± 0.39 h; the “total protein half-life in vivo” value under setting [4] stood at 3.89 ± 0.36 h; the “total protein half-life in vivo” value under setting [5] is 2.9 ± 0.08 h; the “total protein half-life in vivo” value under setting [6] stood at 2.76 ± 0.063 h. Further, the “total protein half-life in vivo” value worked out at 4.82 ± 0.6 h under setting [7]; 7.83 ± 0.7 h under setting [8]; 3.38 ± 0.12 h under setting [9]; 5.01 ± 0.17 h under setting [10]; 4.659 ± 0.022 h under setting [11]; 8.12 ± 0.42 h under setting [12].
For “MSTAITRQIVLDTETTGMNQIGAHYEGHKIIEIGAVEVVNRRLTGNNFHVYLKPDRLVDPEAFGVHGIADEFLLDKPTFAEVADEFMDYIRGAELVIHNAAFDIGFMDYEFSLLKRDIPKTNTFCKVTDSLAVARKMFPGKRNSLDALCARYEIDNSKRTLHGALLDAQILAEVYLAMTGGQTSMAFAMEGETQQQQGEATIQRIVRQASKLRVVFATDEEIAAHEARLDLVQKKGGSCLWRA”, the “total protein half-life in vivo” value was 3.05 ± 0.18 h under setting [1]; 2.05 ± 0.76 h under setting [2]; 1.07 ± 0.32 h under setting [3]; 1.11 ± 0.054 h under setting [4]; 0.973 ± 0.04 h under setting [5]; 0.847 ± 0.019 h under setting [6]. In addition, the “total protein half-life in vivo” value came to 2.13 ± 1.2 h under setting [7]; 2.57 ± 1.2 h under setting [8]; 1.058 ± 0.0019 h under setting [9]; 1.14 ± 0.05 h under setting [10]; 1.22 ± 0.26 h under setting [11]; 2.26 ± 0.95 h under setting [12].
As to “MSYQVLARKWRPQTFADVVGQEHVLTALANGLSLGRIHHAYLFSGTRGVGKTSIARLLAKGLNCETGITATPCGVCDNCREIEQGRFVDLIEIDAASRTKVEDTRDLLDNVQYAPARGRFKVYLIDEVHMLSRHSFNALLKTLEEPPEHVKFLLATTDPQKLPVTILSRCLQFHLKALDVEQIRHQLEHILNEEHIAHEPRALQLLARAAEGSLRDALSLTDQAIASGDGQVSTQAVSAMLGTLDDDQALSLVEAMVEANGERVMALINEAAARGIEWEALLVEMLGLLHRIAMVQLSPAALGNDMAAIELRMRELARTIPPTDIQLYYQTLLIGRKELPYAPDRRMGVEMTLLRALAFHPRMPLPEPEVPRQSFAPVAPTAVMTPTQVPPQPQSAPQQAPTVPLPETTSQVLAARQQLQRVQGATKAKKSEPAAATRARPVNNAALERLASVTDRVQARPVPSALEKAPAKKEAYRWKATTPVMQQKEVVATPKALKKALEHEKTPELAAKLAAEAIERDPWAAQVSQLSLPKLVEQVALNAWKEESDNAVCLHLRSSQRHLNNRGAQQKLAEALSMLKGSTVELTIVEDDNPAVRTPLEWRQAIYEEKLAQARESIIADNNIQTLRRFFDAELDEESIRPI”, the “total protein half-life in vivo” value was found to be 4.86 ± 0.35 h under setting [1]; 4.21 ± 0.06 h under setting [2]; 3.22 ± 0.034 h under setting [3]; 3.39 ± 0.42 h under setting [4]; 2.85 ± 0.051 h under setting [5]; 2.63 ± 0.23 h under setting [6]. The “total protein half-life in vivo” value is, setting by setting: under setting [7], 4.43 ± 0.12 h; under setting [8], 6.79 ± 0.25 h; under setting [9], 3.28 ± 0.052 h; under setting [10], 4.71 ± 0.33 h; under setting [11], 4.22 ± 0.25 h; under setting [12], 8.12 ± 0.2 h.

These data come from the supplement of paper PMC11246515.
